Results taken from ChEMBL document CHEMBL1641456, “Design, synthesis, and pharmacological evaluation of azetedine and pyrrolidine derivatives as dual norepinephrine reuptake inhibitors and 5-HT(1A) partial agonists” (Bioorg Med Chem Lett, 2011).

Chains of the proteins cited; added tags and fusions are not shown.
UniProt P08908, whole entry: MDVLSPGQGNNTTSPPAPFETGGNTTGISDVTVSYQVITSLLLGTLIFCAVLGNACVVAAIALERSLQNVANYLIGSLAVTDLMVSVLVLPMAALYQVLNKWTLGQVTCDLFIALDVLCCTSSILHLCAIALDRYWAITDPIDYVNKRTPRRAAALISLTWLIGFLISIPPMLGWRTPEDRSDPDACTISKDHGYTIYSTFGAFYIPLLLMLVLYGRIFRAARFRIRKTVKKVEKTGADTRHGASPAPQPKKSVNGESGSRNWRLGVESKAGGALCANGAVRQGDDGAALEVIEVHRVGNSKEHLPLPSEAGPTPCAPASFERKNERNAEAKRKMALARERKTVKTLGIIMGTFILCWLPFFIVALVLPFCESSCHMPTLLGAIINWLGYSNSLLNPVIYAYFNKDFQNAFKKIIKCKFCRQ

Target: 5-hydroxytryptamine receptor 1A (Homo sapiens, UniProt P08908)
Assay: Agonist activity at 5HT1A receptor by GTPgammaS binding assay
Format: functional

EC50: 77 nM
SMILES: Fc1cccc(Cl)c1Oc1cccc(F)c1O[C@@H]1CCNC1
